## Binding of CDR-mutated scFvs to a peptide of the spike HR2 region

Target peptide (SARS-CoV-2 spike, HR2 region): PDVDLGDISGINAS

Parent scFv Ab-91: VL joined to VH by the linker GGGGSGGGGSGGGGS. Changes lie in the heavy chain CDRs alone.
VL: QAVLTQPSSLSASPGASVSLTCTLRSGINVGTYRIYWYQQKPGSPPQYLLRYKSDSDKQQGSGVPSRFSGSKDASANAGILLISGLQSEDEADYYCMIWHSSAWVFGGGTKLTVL
VH: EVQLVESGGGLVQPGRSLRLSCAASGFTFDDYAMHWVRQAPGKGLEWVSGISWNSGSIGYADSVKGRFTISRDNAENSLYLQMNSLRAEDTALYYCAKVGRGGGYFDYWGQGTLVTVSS

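Variants in AAYL51 differ from the parent at up to three CDR positions; double and triple changes were sampled at random. The scFvs were displayed on barcoded MATa yeast, the peptide on MATalpha yeast. Binding brings cells together so that they mate, and sequencing counts the barcode pairs among the diploids. The ratio of observed to expected reads was calibrated, replicate by replicate, on BCL2-family standards whose Kd was known from biolayer interferometry. There are three technical replicates.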

Changes read parent residue, position, new residue, counted from the first residue of the VH shown. The read-out is the apparent dissociation constant on a log10 scale (nM): the lower, the stronger. A mean of the replicates is given; it leaves out those without a signal. An entry "n.d." has no value in the source: the pair was not observed among the diploids in that replicate. This suggests poor binding but is not conclusive. Nonspecific signal, from three strains lacking the peptide, appeared in 21% of pairings of library AAYL51, centred on 4.54 (5% of these signals below 3.26); values are not corrected for it. For each scFv, signals with the empty controls are counted beside the result, with their mean in brackets. In this assay the parent's reference entry averaged 1.86; its copy inside this library read 0.88.

changes | log10 Kd, replicates | mean, log10 nM | signal with controls
F29E+V99A+F106W | n.d. n.d. n.d. | n.d. | 1/9 (2.27)
Y32I+M34Q+V99K | n.d. n.d. n.d. | n.d. | 4/9 (4.22)
G56H+S63G+Y105S | 2.24 2.60 3.93 | 2.92 | 2/9 (3.83)
Y32T+I58G+G102I | n.d. 5.88 n.d. | 5.88 | 4/9 (4.14)
Y32N+G100I+G102L | n.d. n.d. n.d. | n.d. | 3/9 (4.57)
S52A+I58F+G103D | 5.15 6.44 n.d. | 5.79 | 3/9 (4.55)
S55K+G59N+F106M | 4.91 4.95 n.d. | 4.93 | 7/9 (5.16)
G59S+D62T+D107I | 4.85 n.d. n.d. | 4.85 | 0/9
G59T+D107F | 4.22 n.d. n.d. | 4.22 | 1/9 (4.07)
S52P+G56M | n.d. n.d. n.d. | n.d. | 1/9 (3.60)
N54L+G102A+D107C | n.d. n.d. n.d. | n.d. | 0/9
S52I+S57L+D107M | n.d. 5.78 4.44 | 5.11 | 2/9 (4.28)
I51E+N54T+D107T | n.d. n.d. n.d. | n.d. | 1/9 (4.29)
T28H+H35C+G100W | n.d. n.d. n.d. | n.d. | 1/9 (5.57)
G26K+S57W+V99C | n.d. n.d. n.d. | n.d. | 0/9
Y32V+S52L+D62F | n.d. n.d. n.d. | n.d. | 1/9 (3.06)
M34R+N54M+F106M | 4.79 n.d. n.d. | 4.79 | 4/9 (4.95)
F29R+M34S+Y60D | 5.72 5.86 n.d. | 5.79 | 2/9 (5.27)
D30E+I58K+D107E | 1.31 1.36 0.85 | 1.17 | 0/9
T28I+D30L+D107R | n.d. n.d. n.d. | n.d. | 1/9 (1.59)
W53S+S55E | 3.24 2.90 2.90 | 3.02 | 3/9 (4.96)
Y60T+R101P | 1.98 2.13 1.87 | 1.99 | 3/9 (3.81)
H35D+N54F+G59V | n.d. 5.10 5.39 | 5.25 | 2/9 (4.38)
F29V+W53Q+G56Y | n.d. n.d. n.d. | n.d. | 0/9
D30S | 1.21 1.11 0.61 | 0.98 | 3/9 (4.83)
A33L+Y60G+R101K | n.d. n.d. n.d. | n.d. | 0/9
G50D+G56H+V64L | n.d. n.d. n.d. | n.d. | 0/9
M34N+G104W+F106V | n.d. n.d. n.d. | n.d. | 0/9
F29G+I51C+Y105F | 5.97 n.d. n.d. | 5.97 | 3/9 (4.40)
S55N+K65D+R101S | n.d. n.d. 4.16 | 4.16 | 3/9 (3.17)
Y32C+S55R+G56V | 4.98 4.57 n.d. | 4.77 | 3/9 (4.79)
S57W | 4.13 4.10 n.d. | 4.12 | 2/9 (4.45)
I58F+A61G+G103P | n.d. n.d. n.d. | n.d. | 0/9
F27S+V99D+G104H | n.d. n.d. n.d. | n.d. | 1/9 (4.24)
I51W+D62A+G100C | n.d. 5.22 5.79 | 5.50 | 2/9 (4.66)
G50K+V64F+G104R | 5.51 5.82 n.d. | 5.67 | 4/9 (5.12)
Y32W+V64I+F106C | 4.18 3.99 4.84 | 4.34 | 6/9 (4.48)
F27S+Y32S+A33E | n.d. n.d. n.d. | n.d. | 0/9
A33S | 1.08 1.29 0.92 | 1.10 | 1/9 (3.33)
N54F+S57Q+D62I | n.d. 3.81 4.44 | 4.13 | 0/9
I51D+N54F+G56F | n.d. 4.40 n.d. | 4.40 | 2/9 (4.57)
D31G+I58T | 0.53 0.39 -0.21 | 0.24 | 4/9 (4.03)
G59V+S63T+Y108S | 4.41 5.49 5.13 | 5.01 | 4/9 (4.81)
F27K+Y32T+R101H | n.d. n.d. n.d. | n.d. | 0/9
A33H+G103V+D107L | n.d. 3.59 n.d. | 3.59 | 2/9 (4.33)
F29D+N54G+Y108W | 4.92 n.d. n.d. | 4.92 | 4/9 (3.90)
D30E+N54G+Y60Q | n.d. 4.31 4.27 | 4.29 | 5/9 (5.14)
G26N+S63K+F106T | 4.36 5.87 n.d. | 5.11 | 6/9 (4.40)
H35R+G59F+G102C | 4.94 n.d. n.d. | 4.94 | 3/9 (4.87)
G56R+D62G+Y108G | 2.78 2.40 2.64 | 2.61 | 5/9 (4.39)
N54I | n.d. 4.59 n.d. | 4.59 | 3/9 (4.36)
G26W+D30S+K65L | 4.69 n.d. n.d. | 4.69 | 3/9 (3.82)

Top 8 of the variants detected in all replicates, tightest first:

changes,"log10 Kd, replicates","mean, log10 nM",signal with controls
D31G+I58T,0.53 0.39 -0.21,0.24,4/9 (4.03)
D30S,1.21 1.11 0.61,0.98,3/9 (4.83)
A33S,1.08 1.29 0.92,1.10,1/9 (3.33)
D30E+I58K+D107E,1.31 1.36 0.85,1.17,0/9
Y60T+R101P,1.98 2.13 1.87,1.99,3/9 (3.81)
G56R+D62G+Y108G,2.78 2.40 2.64,2.61,5/9 (4.39)
G56H+S63G+Y105S,2.24 2.60 3.93,2.92,2/9 (3.83)
W53S+S55E,3.24 2.90 2.90,3.02,3/9 (4.96)

Data: MIT Lincoln Laboratory AlphaSeq set, Engelhart et al. 2022, doi:10.1038/s41597-022-01779-4, as distributed in FLAb.